System: normal volunteers
Assay: Sustacal meal preceded by subcutaneous injection of GLIP in normal volunteers (Example 4)
Type: in vivo, human
Description: 7 normal volunteers were studied after ingestion of a Sustacal meal either alone or immediately preceded by a subcutaneous injection of 100 μg GLIP.
Results are shown in FIG. 4. *indicates statistically significant differences between treatments (p<0.05).

Question: Which results are given for “Glucagon-like peptide 1(7-36)amide [GLIP]”?
Answer: delays in increase in blood levels, relative to 100 μg dose (50 μg GLIP sc): proportionally shorter; delays in increase in blood levels, relative to 100 μg dose (200 μg GLIP sc): longer

— patent US20080286301A1, “Treatment of diabetes” (priority 1997, published 2008)
